Values of other authors, collected in patent US5707615A, “Method of treating HIV infections with anti-viral formulations” (Merrell Pharmaceuticals Inc., priority 1997, dated 1998).

System: influenza
Details: cited from earlier work

For `OC[C@H]1OC(O)[C@@H](F)[C@@H](O)[C@@H]1O` (stereo partly drawn) [2-deoxy-2-fluoro-D-mannose], the “antiviral activity, influenza infected cells” value is listed as “inhibit antiviral activity against influenza infected cells by preventing the glycosylation of viral membrane protein”.
